From patent US6043211A, “Method for inhibiting the activity of a platelet-derived growth factor receptor binding protein” (The Regents of the University of California, priority 1995, dated 2000) come the findings set out here.

For this experiment, the system named is native mouse receptor. The experiment is described as follows: Competitive binding of PDGF forms against 125I-PDGF on BALB/c 3T3 cells. The following applies: mouse 3T3 cells, yeast-expressed homodimers. An excerpt: The ability of the human recombinant AA and BB homodimers to compete for the type B receptor sites and displace ^125 I-labeled PDGF (prepared as described below) was studied. Each homodimer was produced selectively by a yeast expression system and was purified from yeast media that is devoid of other mesenchymal cell growth factors, thus avoiding the artifact of contamination by factors that might be present in mammalian expression systems.
BALB/c 3T3 cells and CHO transfectants (CHO-HR5) were incubated with ^125 I-PDGF in the presence of increasing concentrations of AA or BB. Binding was carried out at 37° C. for 45 min in whole cell suspension. Unbound, radiolabeled PDGF was removed by centrifugation on a Ficoll gradient Non-specific binding, determined by incubating CHO cells with ^125 I-PDGF, accounted for 25 percent of the bound radioactivity.

As to “BB: Human recombinant BB homodimer of PDGF produced by a yeast expression system”, the “Relative affinity for the native mouse receptor” value is reported as “higher affinity than the AA form”.
